T1: human GITR on cells (human, UniProt Q9Y5U5 26-241)
T1 chain: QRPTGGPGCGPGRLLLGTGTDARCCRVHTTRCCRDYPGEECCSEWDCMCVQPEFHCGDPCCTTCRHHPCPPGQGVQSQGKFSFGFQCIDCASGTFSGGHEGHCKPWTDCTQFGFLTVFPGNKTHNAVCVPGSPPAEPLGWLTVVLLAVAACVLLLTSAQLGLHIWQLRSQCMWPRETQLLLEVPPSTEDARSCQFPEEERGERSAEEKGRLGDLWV


Molecular target: T1, human GITR on cells
Assay: FACS binding to anti-CD3/CD28-activated human CD4 T cells

Row | EC50 | Binder
1 | 0.203 nM | anti-GITR-IgG2-IgG1 (antibody) heavy: QVQLVESGGGVVQPGRSLRLSCAASGFTFSSYGMHWVRQAPGKGLEWVAVIWYEGSNKYYADSVKGRFTISRDNSKNTLYLQMNSLRAEDTAVYYCARGGSMVRGDYYYGMDVWGQGTTVTVSSASTKGPSVFPLAPCSRSTSESTAALGCLVKDYFPEPVTVSWNSGALTSGVHTFPAVLQSSGLYSLSSVVTVPSSNFGTQTYTCNVDHKPSNTKVDKTVERKCCVE[human IgG1 Fc skipped] light: AIQLTQSPSSLSASVGDRVTITCRASQGISSALAWYQQKPGKAPKLLIYDASSLESGVPSRFSGSGSGTDFTLTISSLQPEDFATYYCQQFNSYPYTFGQGTKLEIKRTVAAPSVFIFPPSDEQLKSGTASVVCLLNNFYPREAKVQWKVDNALQSGNSQESVTEQDSKDSTYSLSSTLTLSKADYEKHKVYACEVTHQGLSSPVTKSFNRGEC
2 | 0.257 nM | anti-GITR-IgG1 (antibody) heavy: QVQLVESGGGVVQPGRSLRLSCAASGFTFSSYGMHWVRQAPGKGLEWVAVIWYEGSNKYYADSVKGRFTISRDNSKNTLYLQMNSLRAEDTAVYYCARGGSMVRGDYYYGMDVWGQGTTVTVSSASTKGPSVFPLAPSSKSTSGGTAALGCLVKDYFPEPVTVSWNSGALTSGVHTFPAVLQSSGLYSLSSVVTVPSSSLGTQTYICNVNHKPSNTKVDKKV[human IgG1 Fc skipped] light: AIQLTQSPSSLSASVGDRVTITCRASQGISSALAWYQQKPGKAPKLLIYDASSLESGVPSRFSGSGSGTDFTLTISSLQPEDFATYYCQQFNSYPYTFGQGTKLEIKRTVAAPSVFIFPPSDEQLKSGTASVVCLLNNFYPREAKVQWKVDNALQSGNSQESVTEQDSKDSTYSLSSTLTLSKADYEKHKVYACEVTHQGLSSPVTKSFNRGEC
3 | 0.286 nM | anti-GITR-IgG1.1 (antibody) heavy: QVQLVESGGGVVQPGRSLRLSCAASGFTFSSYGMHWVRQAPGKGLEWVAVIWYEGSNKYYADSVKGRFTISRDNSKNTLYLQMNSLRAEDTAVYYCARGGSMVRGDYYYGMDVWGQGTTVTVSSASTKGPSVFPLAPSSKSTSGGTAALGCLVKDYFPEPVTVSWNSGALTSGVHTFPAVLQSSGLYSLSSVVTVPSSSLGTQTYICNVNHKPSNTKVDKKVEPKSCDKTHTCPPCPAPEAEGAPSVFLFPPKPKDTLMISRTPEVTCVVVDVSHEDPEVKFNWYVDGVEVHNAKTKPREEQYNSTYRVVSVLTVLHQDWLNGKEYKCKVSNKALPSSIEKTISKAKGQPREPQVYTLPPSREEMTKNQVSLTCLVKGFYPSDIAVEWESNGQPENNYKTTPPVLDSDGSFFLYSKLTVDKSRWQQGNVFSCSVMHEALHNHYTQKSLSLSPG light: AIQLTQSPSSLSASVGDRVTITCRASQGISSALAWYQQKPGKAPKLLIYDASSLESGVPSRFSGSGSGTDFTLTISSLQPEDFATYYCQQFNSYPYTFGQGTKLEIKRTVAAPSVFIFPPSDEQLKSGTASVVCLLNNFYPREAKVQWKVDNALQSGNSQESVTEQDSKDSTYSLSSTLTLSKADYEKHKVYACEVTHQGLSSPVTKSFNRGEC

Source: patent publication US20220106400A1 (published 2022)
